Protein sequences, listed by entry. Tags and fused reporters are not part of them.
UniProt P22001, whole entry: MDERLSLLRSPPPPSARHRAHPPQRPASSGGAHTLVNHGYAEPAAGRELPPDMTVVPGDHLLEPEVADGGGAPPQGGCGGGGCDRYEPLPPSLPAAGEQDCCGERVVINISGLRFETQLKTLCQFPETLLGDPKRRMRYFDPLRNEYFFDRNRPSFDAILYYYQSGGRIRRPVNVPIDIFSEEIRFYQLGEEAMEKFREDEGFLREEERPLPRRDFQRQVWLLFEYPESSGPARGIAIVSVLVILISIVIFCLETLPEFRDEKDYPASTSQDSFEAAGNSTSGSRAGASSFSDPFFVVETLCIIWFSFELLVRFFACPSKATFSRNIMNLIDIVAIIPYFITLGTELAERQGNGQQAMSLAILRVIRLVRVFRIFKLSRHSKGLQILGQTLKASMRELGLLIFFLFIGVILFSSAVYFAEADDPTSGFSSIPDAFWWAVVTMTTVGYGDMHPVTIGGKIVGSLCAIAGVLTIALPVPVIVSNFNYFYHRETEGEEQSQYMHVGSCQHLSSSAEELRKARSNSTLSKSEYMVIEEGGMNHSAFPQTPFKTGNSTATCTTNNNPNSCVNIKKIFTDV
UniProt Q09470, whole entry: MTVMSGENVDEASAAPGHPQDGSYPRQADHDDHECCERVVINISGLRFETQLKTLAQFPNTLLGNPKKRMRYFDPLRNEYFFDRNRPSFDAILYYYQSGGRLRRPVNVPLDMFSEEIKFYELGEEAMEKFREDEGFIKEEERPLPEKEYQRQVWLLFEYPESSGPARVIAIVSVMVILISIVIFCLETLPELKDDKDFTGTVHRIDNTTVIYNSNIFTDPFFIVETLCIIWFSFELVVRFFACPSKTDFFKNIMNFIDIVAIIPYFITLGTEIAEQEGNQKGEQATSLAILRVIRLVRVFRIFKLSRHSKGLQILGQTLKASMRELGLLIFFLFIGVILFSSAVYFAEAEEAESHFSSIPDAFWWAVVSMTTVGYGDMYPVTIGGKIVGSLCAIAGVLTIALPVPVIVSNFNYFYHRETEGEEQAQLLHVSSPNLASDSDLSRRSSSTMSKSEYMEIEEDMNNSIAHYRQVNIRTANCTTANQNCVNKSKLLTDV

According to patent publication US7833979B2, “Toxin peptide therapeutic agents” (Amgen Inc., priority 2005, dated 2010):

What was measured:
Kv1.3 = Kv1.3 (Homo sapiens, UniProt P22001); experiment: Whole cell patch clamp electrophysiology on HEK293 cells stably expressing human Kv1.3; assay type: cell-based; conditions: ratio of hKv1.1 IC50 to hKv1.3 IC50
human Kv1.1 = molecular target: T1, human Kv1.1 (Homo sapiens, UniProt Q09470); experiment: Whole cell patch clamp electrophysiology, HEK293 cell expression system, human Kv1.1; assay type: cell-based
T1 construct: expressed in transfected cells; host or cells: HEK293

`CC[C@H](C)[C@@H]1NC(=O)[C@H](CCCCN)NC(=O)[C@@H](NC(=O)[C@H](CCCCN)NC(=O)[C@@H](NC(=O)[C@H](CC(N)=O)NC(=O)[C@@H](NC(=O)[C@@H](NC(=O)[C@@H](NC(=O)CN)C(C)C)[C@@H](C)CC)[C@@H](C)CC)C(C)C)CSSC[C@@H]2NC(=O)[C@H](CCCCN)NC(=O)CNC(=O)[C@H](Cc3ccccc3)NC(=O)[C@H](CCCNC(=N)N)NC(=O)[C@H](CCSC)NC(=O)CNC(=O)[C@H](C)NC(=O)[C@H](CCCCN)NC(=O)[C@H](CCCCN)NC(=O)[C@@H]3CSSC[C@@H](C(=O)N[C@H](C(=O)N4CCC[C@H]4C(=O)N[C@@H](CCCCN)C(=O)O)[C@@H](C)O)NC(=O)[C@H](Cc4c[nH]cn4)NC(=O)[C@H](CSSC[C@H](NC(=O)[C@H](CCC(N)=O)NC(=O)[C@H](CCCNC(=N)N)NC(=O)[C@H](CO)NC1=O)C(=O)N[C@@H](CC(C)C)C(=O)N[C@@H](CCC(=O)O)C(=O)N1CCC[C@H]1C(=O)N3)NC(=O)[C@H](CCCCN)NC(=O)CNC(=O)[C@H](CC(N)=O)NC(=O)[C@H](CCSC)NC2=O` [OSK1, reference compound] was tested, and the “selectivity ratio hKv1.1/hKv1.3” value (Kv1.3) was 4 and the “Potency and selectivity Kv1.3 versus Kv1.1 (in words)” value (human Kv1.1) was “more potent in inhibiting human Kv1.3 when compared to Kv1.1”.
